Test results taken from PubChem BioAssay AID630 (Emory University Molecular Libraries Screening Center, 2007).
Only a part is listed here, and it is no random draw. Some results for these compounds are left out of this collection, so the calls shown say nothing about other tests. Calls of active or inactive are those of the source.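 Rule for the calls: active = compounds that reduce the energy-transfer binding signal between the protein and its labelled peptide by more than half; inactive = the rest.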

Sequences of proteins named here, by UniProt entry; tags and fusion partners are left off.
UniProt P84022, whole entry: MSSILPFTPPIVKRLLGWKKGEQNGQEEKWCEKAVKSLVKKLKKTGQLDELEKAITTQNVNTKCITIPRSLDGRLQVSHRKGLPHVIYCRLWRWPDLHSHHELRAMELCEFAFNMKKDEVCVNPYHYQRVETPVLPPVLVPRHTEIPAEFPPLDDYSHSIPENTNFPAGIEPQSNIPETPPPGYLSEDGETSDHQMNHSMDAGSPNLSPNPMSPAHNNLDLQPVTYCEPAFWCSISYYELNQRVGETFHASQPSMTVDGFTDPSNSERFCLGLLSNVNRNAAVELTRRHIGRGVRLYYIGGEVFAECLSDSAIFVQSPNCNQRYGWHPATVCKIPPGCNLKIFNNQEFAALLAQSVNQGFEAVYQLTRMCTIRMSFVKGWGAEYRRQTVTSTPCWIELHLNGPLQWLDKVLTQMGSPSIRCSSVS

biological target: Mothers against decapentaplegic homolog 3 (Homo sapiens) (UniProt P84022); test: Smad3/FoxH1 peptide binding inhibitors, primary screen, biochemical, TR-FRET (AID 630); details: TR-FRET Smad3/Dy647-FoxH1 peptide binding, europium anti-His; at 25 µM; hits give high values;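 note: 0% = Smad3 plus labelled peptide maximal FRET and 100% = peptide-only background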

SMILES	inhibition
CN(C)c1cccc(C(=O)NCC2(N(C)C)CCCCC2)c1	inactive: 3.65%
C=C(C)C#C[C@@](O)(C(=O)OC1CCN(C)CC1)c1ccccc1	active: 82.2%
O=C(OC1CN2CCC1CC2)C(CO)(c1ccccc1)c1ccccc1 (centres undefined)	inactive: -3.37%
CN1CCC[C@H](OC(=O)[C@](O)(c2ccccc2)C2CCCC2)C1	inactive: -4.93%
